In patent publication US20160177395A1, “BIOMARKERS FOR THE PREDICTION OF RENAL INJURY” (priority 2007, published 2016):

What was measured:
[1] = system: Sprague-Dawley Crl:CD(SD) rats; conditions: rat, in vivo;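 also: control rats received saline intraperitoneally, and the organs examined were adrenals, brain, kidneys, liver, spleen and thymus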
[2] = system: Sprague-Dawley Crl:CD(SD) rats; test: Rat toxicity study, single, 5-day and 28-day treatment (clinical observation, clinical pathology, autopsy, organ weights, histopathology);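 also: control rats received saline intraperitoneally, and the organs examined were adrenals, brain, kidneys, liver, spleen and thymus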
[3] = females, 28-days treatment group, 4 mg/kg
[4] = males, 28-days treatment group, 4 mg/kg

**Q.** With `COc1cccc2c1C(=O)c1c(O)c3c(c(O)c1C2=O)C[C@@](O)(C(=O)CO)C[C@@H]3O[C@H]1C[C@H](N)[C@H](O)[C@H](C)O1` [Doxorubicin] as the compound, how does the Body weight gain [1] read?
**A.** The Body weight gain was “Decreased body weight gain was recorded in both sexes”.

**Q.** And the Clinical symptoms [1]?
**A.** Its Clinical symptoms is “Clinical symptoms were observed”.

**Q.** And the “Water consumption, males” value [1]?
**A.** Its value is “Significant decrease from Week 2”.

**Q.** What about the Clinical symptoms ([2]; 28-day treatment) of the same compound?
**A.** Its Clinical symptoms is “severe clinical symptoms and lethality when administered in a 4 mg/kg dose”.

**Q.** And the Lethality ([2]; 28-days treatment group, originally planned dose 4 mg/kg, 4 mg/kg)?
**A.** Its Lethality is “Two out of 3 males and 1 out of 3 females died; also recorded: Death occurred only in Doxorubicin treated groups”.

**Q.** What about the Lethality ([2]; 28-days treatment, lowered dose 1 mg/kg, 1 mg/kg) of the same compound?
**A.** Its Lethality is “not lethal; also recorded: No lethality was recorded after lowering the dose from 4 mg/kg to 1 mg/kg”.

**Q.** And the Died [2, 3]?
**A.** Its Died is 1/3 (Day 9).

**Q.** What about the Moribund [2, 3] of the same compound?
**A.** The Moribund was 2/3 (Day 9).

**Q.** What about the Died [2, 4] of the same compound?
**A.** Its Died is 2/3 (Day 8).

**Q.** And the Moribund [2, 4]?
**A.** The Moribund was 1/3 (Day 8).

“Also recorded” adds a separate entry of the source. Read-outs that look alike come from different tables or passages of the source.
